These results are taken from PubChem BioAssay AID488841 (Sanford-Burnham Center for Chemical Genomics, 2010).

The structures appear in SMILES notation. This is a selection; strong and weak results do not stand in their true shares. The source made the active and inactive calls.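 How the source made its calls: active means mean inhibition above 50% across duplicate retests at 10 µM; inactive means the rest.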

Usually inhibition stands for the change of the read-out against control, counted positive when it falls.

The nature of this assay: yeast NALP1 reporter signal suppression – S. cerevisiae, luminescence, single concentration, NALP1 inhibitor project, confirmation (AID 488841).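 Further: plate controls were DMSO in galactose medium for no effect and cells in plain SD medium for full effect.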 The following applies: S. cerevisiae NALP1/ASC/Caspase-1 reporter, beta-gal luminescence; at 10 µM; active compounds read high.
Turning to `CC(=O)NC(SC(=S)N(C)C)C(Cl)(Cl)Cl` (stereo not drawn), the inhibition was inactive: 44.3%.
The value for `O=[N+]([O-])c1cc([N+](=O)[O-])c(-c2ccn[nH]2)s1` was inactive: 47.1%; that for `O=C(OC1CN2CCC1CC2)C12CC3CC(CC(C3)C1)C2` (stereo not drawn) was inactive: 30.7%.
